From paper PMC5511190

These substances were tested against GST-LRRK2 WD40 G2385R (human) (UniProt Q5S007) (assay: affinity purification with mass spectrometry; 5 µg GST fusion protein on glutathione-Sepharose incubated with adult mouse brain lysate or crude SV fraction (LP2) (1 mg protein) 2 h at 4 °C; washes 150 mM NaCl, 2 mM EDTA, 50 mM Tris-HCl, 0.2% Triton, pH 7.4; LC-MS/MS with label-free quantification, 4 samples per condition (GST-control, GST-WD40, GST-WD40-G2385R)).

Substance | G2385R/WT (ratio of abundance in G2385R versus wild-type bait)
Actin, cytoplasmic 2 (from UniProt P63260 1-375) (natural protein) | 0.37
Actin-related protein 2 (from UniProt P61161 1-394) (natural protein) | 0.52
Actin-related protein 2/3 complex subunit 3 (from UniProt Q9JM76 1-178) (natural protein) | 0.23
Actin-related protein 3 (from UniProt Q99JY9 1-418) (natural protein) | 0.19
Dihydropyrimidinase-related protein 2 (from UniProt O08553 1-572) (natural protein) | 0.5
